Our source for the Ki values is patent EP1301480B1, “1,3-DISUBSTITUTED AND 1,3,3-TRISUBSTITUTED PYRROLIDINES AS HISTAMINE-3 RECEPTOR LIGANDS AND THEIR THERAPEUTIC APPLICATIONS” (ABBOTT LABORATORIES, priority 2000, dated 2002).

Amino acid sequences for entries named in this document (tags omitted). A change or cut given only in a name is not applied to a line headed by its entry.
UniProt Q9QYN8: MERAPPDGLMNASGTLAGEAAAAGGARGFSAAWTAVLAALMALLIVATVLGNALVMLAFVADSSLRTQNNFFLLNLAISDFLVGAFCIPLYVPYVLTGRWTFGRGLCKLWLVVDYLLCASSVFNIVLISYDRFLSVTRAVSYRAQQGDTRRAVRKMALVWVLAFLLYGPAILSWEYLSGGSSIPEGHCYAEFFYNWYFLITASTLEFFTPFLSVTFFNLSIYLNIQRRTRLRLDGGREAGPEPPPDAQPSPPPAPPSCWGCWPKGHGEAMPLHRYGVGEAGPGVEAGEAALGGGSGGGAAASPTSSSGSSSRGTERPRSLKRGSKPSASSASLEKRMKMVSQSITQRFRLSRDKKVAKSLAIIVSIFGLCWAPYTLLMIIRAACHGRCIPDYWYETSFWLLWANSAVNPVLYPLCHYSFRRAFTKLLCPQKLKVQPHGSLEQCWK

The target of the assay is T1, histamine-3 receptor (Rattus norvegicus, UniProt Q9QYN8).
T1 construct: from tissue; host or cells: male Sprague-Dawley rat brain cortex membranes
Briefly: Histamine-3 receptor binding: displacement of (3H)-N-α-methylhistamine from rat cortical membranes. The conditions noted are these: (3H)-N-α-methylhistamine (~0.6 nM), 30 minutes at 25 °C, pH 7.7, Cheng-Prusoff equation. The arrangement: species or system male Sprague-Dawley rat. The protocol:
Briefly, male Sprague-Dawley rat brain cortices were homogenized (1 g tissue/10 mL buffer) in 50 mM Tris-HCl/5 mM EDTA containing protease inhibitor cocktail (Calbiochem) using a polytron set at 20,500 rpm. Homogenates were centrifuged for 20 minutes at 40,000xg. The supernatant was decanted, and pellets were weighed. The pellet was resuspended by polytron homogenization in 40 mL 50 mM Tris-HCI/5 mM EDTA with protease inhibitors and centrifuged for 20 minutes at 40,000xg. […] Test compounds were dissolved in DMSO to provide a 20 mM solution, serially diluted and then added to the incubation mixtures prior to initiating the incubation assay by addition of the membranes. Thioperamide (3 µM) was used to determine nonspecific binding. Binding incubations were conducted for 30 minutes at 25 °C and terminated by addition of 2 mL of ice cold 50 mM Tris-HCl (pH 7.7) and filtration through 0.3% polyethylenimine-soaked Unifilter plates (Packard). These filters were washed 4 additional times with 2 mL of ice-cold 50 mM Tris-HCl and dried for 1 hour. Radioactivity was determined using liquid scintillation counting techniques. Results were analyzed by Hill transformation and Ki values were determined using the Cheng-Prusoff equation.

The structures appear in SMILES notation.

Regarding `CN[C@@H]1CCN(CCCOc2ccc(-c3ccc(C#N)cc3)cc2)C1` [Example 110, 4'-{3-[(3R)-3-(methylamino)pyrrolidinyl]propoxy}[1,1'-biphenyl]-4-carbonitrile], affinity was put at a Ki of 30 nM.
